Experimental data as given in PubChem BioAssay AID504652 (National Center for Advancing Translational Sciences (NCATS), 2011).
“And” between values parts separate entries of the source, which are not always exact repeats. Equal entries are not always repeated. The list shows a part of the results, in another mix than the full data. The source made the active and inactive calls. Cut-off read from the data, not from the text of the source: active = activity change below about -30%; inactive = the rest.

Protein sequences, listed by entry. Tags and fused reporters are not part of them.
UniProt P21728, whole entry, looked up: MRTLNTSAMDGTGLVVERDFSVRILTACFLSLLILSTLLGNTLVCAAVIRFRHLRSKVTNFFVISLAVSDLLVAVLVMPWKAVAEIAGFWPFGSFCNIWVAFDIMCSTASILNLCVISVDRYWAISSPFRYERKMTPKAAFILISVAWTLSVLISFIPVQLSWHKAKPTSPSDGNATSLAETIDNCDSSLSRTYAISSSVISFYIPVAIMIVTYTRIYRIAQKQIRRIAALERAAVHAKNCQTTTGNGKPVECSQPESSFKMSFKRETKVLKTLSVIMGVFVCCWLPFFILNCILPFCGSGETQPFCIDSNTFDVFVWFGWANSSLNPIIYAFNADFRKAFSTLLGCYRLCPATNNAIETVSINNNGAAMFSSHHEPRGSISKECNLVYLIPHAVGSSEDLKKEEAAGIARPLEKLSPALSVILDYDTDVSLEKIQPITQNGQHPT

Target: D(1A) dopamine receptor (Homo sapiens) (UniProt P21728)
Experiment: Antagonist of Human D 1 Dopamine Receptor: qHTS
Conditions: HEK293 TREx D1 cells, calcium flux, dopamine EC80; at 10 µM; hits give low values
From the text: Dopamine receptors (DARs) are involved in the etiology and/or therapy of a number of neuropsychiatric and endocrine disorders. For instance, all receptor-based antiparkinsonian drugs work via stimulating the […] DAR subtype whereas all FDA-approved antipsychotic agents are antagonists of this receptor. […] There are three different types of allosteric modulators that we are seeking, two of which will stimulate or augment receptor signaling, allosteric agonists and potentiators, while the third, allosteric antagonists, will attenuate receptor signaling. The present primary screening assay measures compound antagonism after an EC80 addition of dopamine by tracking calcium flux in a […], inducible Hek293 Trex D1 cell line. NIH Chemical Genomics Center [NCGC] NIH Molecular Libraries Probe Centers Network [MLPCN] MLPCN Grant: NS064831-01 Assay Submitter (PI): David Sibley
Freshly passaged cells are plated in 1536 well black, clear bottom plates at a density of 4000 cells/well in 3 ul of complete media containing 1x tetracycline inducer. After an overnight incubation at 30 C in 5% CO2, cells are loaded with 2 ul of the no wash Calcium Assay Kit (ABD Bioquest) and incubated at room temperature for 30 to 90 minutes. Agonist read: A 10 cycle (1 second/cycle) baseline measurement is taken and then the FDSS online 1536 pintool delivers 23 nl of compound library (as well as dopamine controls) to the plate. The plate is measured for kinetically at 1 cycle/sec for 180 seconds. Following the 180 second read, 1 ul of an EC80 (negative modulation assay) is delivered by an onboard pipette head. Measurements are taken kinetically for an additional 180 seconds.
% is set by controls: 0 for no effect and ±100 for the full control effect.

SMILES	activity change, negative = inhibition
COC(=O)c1cc2c(s1)N=C(c1ccccc1)N(C)P2(=O)N1CCOCC1 (stereo not given)	inactive: -3.9%
Cc1ccc(OP(=O)(Nc2ccccn2)Oc2ccc(C)cc2)cc1	inactive: -2.94%
CC(=O)NC(SC(=S)N(CC(C)C)CC(C)C)C(Cl)(Cl)Cl (stereo not given)	inactive: -24.3%
O=C(OC1CN2CCC1CC2)c1ccccc1 (stereo not given)	inactive: -12.9%
CCC(=O)N1C2C3N(C(=O)CC)C1C1N(C(=O)CC)C(C(N1C(=O)CC)N3C(=O)CC)N2C(=O)CC	inactive: -0.647%
Cc1ccccc1OP(=O)(Nc1ccccn1)Oc1ccccc1C	inactive: -18.4%
CN(C)C(=O)Oc1noc2ccccc12	inactive: -2.45%
O=c1c2cc([N+](=O)[O-])ccc2[nH]c2c([N+](=O)[O-])cc([N+](=O)[O-])cc12	active: -30.1%
CCNC(=S)/N=C(\N)N[N+](=O)[O-]	inactive: -4.3%
O=C(NC1CCS(=O)(=O)C1)NP(=S)(Oc1ccccc1)Oc1ccccc1 (stereo not given)	inactive: -1.36%
c1ccc(-c2nn[nH]n2)c(-c2nn[nH]n2)c1	inactive: -9.99%
CCOC(=O)NC(Sc1ccccc1)C(Cl)(Cl)Cl (stereo not given)	inactive: -4.97%
Cc1ccc(NP(=O)(Oc2cccc(C)c2)Oc2cccc(C)c2)nc1	inactive: -11%
CC(=O)c1ccc(N2CC2c2ccncc2)cc1 (stereo not given)	inactive: -7.33%
Cc1ccccc1CN(C)C(=O)COC(=O)C(O)(c1ccccc1)c1ccccc1	inactive: 9.81%
C[C@@H]1C=CCP(=O)(Oc2ccccc2)O1 (stereo not given in full)	inactive: 11.6%
C[C@H]1OP(=O)(Oc2ccccc2)C[C@@H]2O[C@@H]21 (stereo not given in full)	inactive: 8.37%
CC(=O)Nc1ccc([As](=O)(O)O)c(O)c1	inactive: 2.27%
CC(=O)Nc1ccc(Oc2c([N+](=O)[O-])cc([N+](=O)[O-])cc2[N+](=O)[O-])cc1	inactive: 3.11%
O=P1(Nc2nc3ccc(Cl)cc3s2)COc2ccccc2O1 (stereo not given)	inactive: -12.8%
CCOc1ccc(C2=NCC(CBr)S2)cc1 (stereo not given)	inactive: 6.6%
CC(C)(C)C(=O)NC(Sc1ccccc1)C(Cl)(Cl)Cl (stereo not given)	inactive: 0.929%
CC(C)C(=O)NC(Sc1ccccc1)C(Cl)(Cl)Cl (stereo not given)	inactive: -1.25%
O=P(Nc1nccs1)(c1ccccc1)c1ccccc1	inactive: 1.1%
c1nnnn1CCn1cnnn1	inactive: -0.568%

SMILES	activity change, negative = inhibition
O=[N+]([O-])c1ccc(O)c(/C=N/Nc2ccc([N+](=O)[O-])cc2[N+](=O)[O-])c1	inactive: -15.8%
O=[N+]([O-])c1ncn(CCn2cnc([N+](=O)[O-])n2)n1	inactive: 4.09%
CC(=O)NC(SC(=S)N(C)C)C(Cl)(Cl)Cl (stereo not given)	active: -57.4%
O=[As](O)(c1ccccc1)c1ccc(O)cc1	inactive: -17%
Nc1ccc([As](=O)(O)c2ccc([N+](=O)[O-])cc2)cc1	inactive: 8.59%
C(Cc1nn[nH]n1)Cc1nn[nH]n1	inactive: 14.8%
O=C(OC1CN2CCC1CC2)c1cccc(Cl)c1 (stereo not given)	inactive: -10.6%
O=P(Nc1ccccn1)(c1ccc(Br)cc1)c1ccc(Br)cc1	inactive: 0.306%
CN(C)C1(CNC(=O)c2ccc(Cl)c(S(N)(=O)=O)c2)CCCCC1	inactive: -13.8%
O=P(Nc1nc2ccccc2s1)(c1ccccc1)c1ccccc1	inactive: -10.1%
C[C@H]1OP(=O)(Oc2ccccc2)[C@H](O)[C@H](O)[C@H]1N=[N+]=[N-] (stereo not given in full)	inactive: 4.18%
CC(C)(C)C(=O)NC(Sc1ccncn1)C(Cl)(Cl)Cl (stereo not given)	inactive: 16.1%
O=[N+]([O-])c1ncn(CCn2ncnc2[N+](=O)[O-])n1	inactive: -6.12%
O=[N+]([O-])c1cccc(NC2=NCC(CBr)S2)c1 (stereo not given)	inactive: 5.68%
O=C(O)CNc1ccc([As](=O)(O)O)cc1	inactive: 5.67%
O=C(Nc1cc([As](=O)(O)O)ccc1O)c1ccccc1	inactive: 8.58%
Nc1ccc([As](=O)(O)c2ccc(N)cc2)cc1	inactive: -9.19%
C[N+]1=C2C=CC=CC=C2SC12C([N+](=O)[O-])=CC([N+](=O)[O-])=C[C-]2[N+](=O)[O-] (stereo not given)	inactive: -4.54%
CCN(/C(=N/P(=O)(N1CCOCC1)N1CCOCC1)N1CCOCC1)c1ccc(OC)cc1	inactive: 6.92%
CC(C)=N/N=C(\N)N[N+](=O)[O-]	inactive: -1.5%
CN(C)C(=O)OCCc1n(C)cc[n+]1C	inactive: 9.32%
CC1CCN(C(=O)Oc2c(Cl)cc(Cl)c3cccnc23)CC1	inactive: -9.45%
COc1ccc(C2=NCC(CBr)S2)cc1 (stereo not given)	inactive: 4.38%
O=[N+]([O-])c1cccc2n[nH]nc12	inactive: 0.269%
CC(=O)N1C2C3N(C(C)=O)C1C1N(C(C)=O)C(C(N1C(C)=O)N3C(C)=O)N2C(C)=O	inactive: -5.72%

SMILES	activity change, negative = inhibition
Cc1ccc(NP(=O)(Oc2ccccc2)Oc2ccccc2)nc1	inactive: -16%
CCc1nc2c(n1)c1c(non1O)c1c2no[n+]1[O-]	inactive: 3.87%
O=[N+]([O-])c1cc([N+](=O)[O-])c(CCNc2ccccc2)c([N+](=O)[O-])c1	inactive: 10.9%
Nc1cc(N)c2nonc2c1[N+](=O)[O-]	inactive: -8.45%
Oc1ccccc1CNc1ccccn1	inactive: -9.78%
Cc1c2non([O-])c-2c(C)[n+](=O)[n+]1[O-]	inactive: 9.72%
O=C(NC(Sc1ccncn1)C(Cl)(Cl)Cl)c1ccccc1 (stereo not given)	inactive: 2.44%
NC(=O)c1cc([N+](=O)[O-])cc([N+](=O)[O-])c1N	inactive: 6.21%
CN(C(=O)Cc1ccc(Cl)c(Cl)c1)[C@H]1CCCC[C@H]1N1CCCC1	inactive: -18.8%
Cc1ccc(N/C(=N/P(=O)(N2CCOCC2)N2CCOCC2)N2CCOCC2)cc1	inactive: 11%
COc1ccccc1OP(=O)(Nc1ccc(C)cn1)Oc1ccccc1OC	inactive: 9.11%
Cc1ccc(OP(=O)(Nc2nccs2)Oc2ccc(C)cc2)cc1	inactive: 1.98%
Clc1ccc(Cl)c(NC2=NCC(CBr)S2)c1 (stereo not given)	inactive: 6.18%
CN1CCCC(OC(=O)C(c2ccccc2)c2ccccc2)C1 (stereo not given)	inactive: 5.74%
O=[N+]([O-])c1cc([N+](=O)[O-])c(CCN2CCOCC2)c([N+](=O)[O-])c1	inactive: -12.8%
CCN(N=Nc1nonc1N)c1nonc1N	inactive: -4.37%
Nc1cccc2ccc([As](=O)(O)O)cc12	inactive: 7.55%
O=C(O)c1ccccc1[As](=O)(O)O	inactive: 7.27%
CC(=O)Nc1ccc([As](=O)(O)O)cc1	inactive: -3.06%
O=P(Nc1nc2ccc(Cl)cc2s1)(c1ccccc1)c1ccccc1	active: -48.3%
CCOP(=O)(Nc1ccccc1)OCC	inactive: -7.71% and inactive: 0.862%
Cc1cc(SC(NC(=O)c2ccc(F)cc2)C(Cl)(Cl)Cl)ncn1 (stereo not given)	inactive: 4.99%
Cc1ccc(NP(=O)(Oc2ccccc2F)Oc2ccccc2F)nc1	inactive: 5.21%
CC(C)c1ccc(OP(=O)(Nc2ccccn2)Oc2ccccc2F)cc1 (stereo not given)	inactive: 2.1%
ClCCSc1nnc(-c2cccnc2)o1	inactive: 2.97%

SMILES	activity change, negative = inhibition
CCN(CC)C(=S)SC(NC=O)C(Cl)(Cl)Cl (stereo not given)	inactive: 3.73%
CC(C)NC(=O)NP(=O)(Oc1ccccc1)Oc1ccccc1	inactive: 18.1%
O=[N+]([O-])c1cc([N+](=O)[O-])c(-c2ccn[nH]2)s1	inactive: -12.8%
C[As](=O)(O)c1cccc(C(=O)O)c1	inactive: 3.26%
O=[As](O)(c1ccc(O)cc1)c1ccccc1O	inactive: 9.8%
COc1cc(C(=O)NCC2(N3CCOCC3)CCCCC2)ccc1OCC(C)C	inactive: 0.207%
Cc1ccc2nc3c(c(C)c2c1)CC(C(Cl)Cl)S3 (stereo not given)	inactive: -2.36%
Cc1ccc(OP(=O)(Nc2ccc([N+](=O)[O-])cn2)Oc2ccc(C)cc2)cc1	inactive: -16.8%
COc1ccc(N/C(=N/P(=O)(N2CCOCC2)N2CCOCC2)N2CCOCC2)cc1	inactive: 2.81%
O=C(OC1CN2CCC1CC2)C12CC3CC(CC(C3)C1)C2 (stereo not given)	inactive: -2.33%
Cc1cc(=O)[nH]c(N[N+](=O)[O-])n1	inactive: 3.53%
Cc1c2c(nc3ccccc13)SC(C(Cl)Cl)C2 (stereo not given)	inactive: 0.983%
COc1ccc2nc(NP(=O)(c3ccccc3)c3ccccc3)sc2c1	inactive: -16.1%
COc1cc(I)ccc1[As](=O)(O)O	inactive: 2.5%
CCOC(=O)c1ccc(NC(=O)C(C)(CCl)SC)cc1 (stereo not given)	inactive: -3.34%
O=C(OC1CN2CCC1CC2)c1cccc([N+](=O)[O-])c1 (stereo not given)	inactive: 6.93%
CCOP(=O)(Nc1cccc2cccnc12)OCC	inactive: -1.58%
CCC(C)N(CC(C)C)C(=S)SC(NC(C)=O)C(Cl)(Cl)Cl (stereo not given)	inactive: 24.2%
COP1(=S)c2c(C)nn(CCC#N)c2N=C(c2ccc(F)cc2)N1C (stereo not given)	inactive: -5.91%
O=C(COc1ccccc1)OC1CN2CCC1CC2 (stereo not given)	inactive: -6.94%
O=C(Nc1ccncc1[N+](=O)[O-])c1ccc([N+](=O)[O-])cc1[N+](=O)[O-]	inactive: -4.8%
CCOC(=O)Nc1cccc([As](=O)(O)O)c1	inactive: -3.92%
O=[N+]([O-])c1ccc(Nc2ccc(Oc3ccc([N+](=O)[O-])cc3[N+](=O)[O-])cc2)c([N+](=O)[O-])c1	inactive: 1.39%
O=P(Nc1ccccn1)(c1cccc2ccccc12)c1cccc2ccccc12	inactive: 1.08%
Cc1cc(SC(NC=O)C(Cl)(Cl)Cl)ncn1 (stereo not given)	inactive: 4.99%
